Several values for one entry are separate records, joined by “and”; a condition that tells them apart may be missing. Equal entries are not always repeated.
Molecular target: His-tagged, doubly phosphorylated LAT (48–233aa; pY132 and pY171) (UniProt O43561)
Assay: co-sedimentation

By UniProt entry, the sequences of proteins in these tests, tags left out. Where a name states a change or a piece, a line headed by the entry shows the natural chain unless it says otherwise.
UniProt O43561: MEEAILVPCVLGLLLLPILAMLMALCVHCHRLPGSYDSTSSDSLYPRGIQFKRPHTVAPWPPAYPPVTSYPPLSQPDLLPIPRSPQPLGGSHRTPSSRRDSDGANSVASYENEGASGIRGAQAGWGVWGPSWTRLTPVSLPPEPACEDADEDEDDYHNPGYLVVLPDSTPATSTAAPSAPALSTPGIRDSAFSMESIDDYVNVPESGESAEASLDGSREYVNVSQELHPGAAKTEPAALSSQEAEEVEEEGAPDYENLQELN

B1: phospholipase-Cγ1 (PLC-γ1), 1–1219aa, untagged, non-phosphorylated (enzyme)
chain: MAGAASPCANGCGPGAPSDAEVLHLCRSLEVGTVMTLFYSKKSQRPERKTFQVKLETRQITWSRGADKIEGAIDIREIKEIRPGKTSRDFDRYQEDPAFRPDQSHCFVILYGMEFRLKTLSLQATSEDEVNMWIKGLTWLMEDTLQAPTPLQIERWLRKQFYSVDRNREDRISAKDLKNMLSQVNYRVPNMRFLRERLTDLEQRSGDITYGQFAQLYRSLMYSAQKTMDLPFLEASTLRAGERPELCRVSLPEFQQFLLDYQGELWAVDRLQVQEFMLSFLRDPLREIEEPYFFLDEFVTFLFSKENSVWNSQLDAVCPDTMNNPLSHYWISSSHNTYLTGDQFSSESSLEAYARCLRMGCRCIELDCWDGPDGMPVIYHGHTLTTKIKFSDVLHTIKEHAFVASEYPVILSIEDHCSIAQQRNMAQYFKKVLGDTLLTKPVEISADGLPSPNQLKRKILIKHKKLAEGSAYEEVPTSMMYSENDISNSIKNGILYLEDPVNHEWYPHYFVLTSSKIYYSEETSSDQGNEDEEEPKEVSSSTELHSNEKWFHGKLGAGRDGRHIAERLLTEYCIETGAPDGSFLVRESETFVGDYTLSFWRNGKVQHCRIHSRQDAGTPKFFLTDNLVFDSLYDLITHYQQVPLRCNEFEMRLSEPVPQTNAHESKEWYHASLTRAQAEHMLMRVPRDGAFLVRKRNEPNSYAISFRAEGKIKHCRVQQEGQTVMLGNSEFDSLVDLISYYEKHPLYRKMKLRYPINEEALEKIGTAEPDYGALYEGRNPGFYVEANPMPTFKCAVKALFDYKAQREDELTFIKSAIIQNVEKQEGGWWRGDYGGKKQLWFPSNYVEEMVNPVALEPEREHLDENSPLGDLLRGVLDVPACQIAIRPEGKNNRLFVFSISMASVAHWSLDVAADSQEELQDWVKKIREVAQTADARLTEGKIMERRKKIALELSELVVYCRPVPFDEEKIGTERACYRDMSSFPETKAEKYVNKAKGKKFLQYNRLQLSRIYPKGQRLDSSNYDPLPMWICGSQLVALNFQTPDKPMQMNQALFMTGRHCGYVLQPSTMRDEAFDPFDKSSLRGLEPCAISIEVLGARHLPKNGRGIVCPFVEIEVAGAEYDSTKQKTEFVVDNGLNPVWPAKPFHFQISNPEFAFLRFVVYEEDMFSDQNFLAQATFPVKGLKTGYRAVPLKNNYSEDLELASLLIKIDIFPAKENGD
- % of protein binding to LUV: 44.2% and 37.9%
